Test: in vitro
Conditions: human, hepatocytes

Row | Compound | hepatocyte CLint [µL/min/1e6 cells]
1 | Cc1nn(-c2ccccc2)c(NC(=O)NS(=O)(=O)c2ccc(Cl)cc2)c1C#N | < 3
2 | Cc1ccccc1-n1c(Cn2cnc3c(N)ncnc32)nc2cccc(C)c2c1=O | 11
3 | Cc1ccc(-c2ccc3c(ccc4sc5c(c43)NC[C@@H](C)NC5=O)n2)cn1 | 6.92
4 | COc1ccc(CNC(=O)CSc2nc3cccnc3s2)cc1 | 60.3
5 | NCCCCCc1c[nH]c2ccc(F)cc12 | 74.1
6 | Cc1noc(C)c1-c1ccc(CNS(=O)(=O)c2c(C)noc2C)cc1 | 19.1
7 | O=C(CN1CCOCC1)Nc1ccc(-c2cccc3c(=O)cc(N4CCOCC4)oc23)cc1OCC1CC1 | 95.5
8 | COc1cc(-c2cccc3c(=O)cc(N4CCOCC4)oc23)ccc1NC(=O)CN1CCOCC1 | 27.5
9 | O=C(O)CCc1ccc(OCc2cccc(Oc3ccccc3)c2)cc1 | > 150
10 | COc1ccnc(CCc2nc3c(C)ccnc3[nH]2)c1 | < 3
11 | Cc1cc(OCCCS(C)(=O)=O)cc(C)c1-c1cccc(COc2ccc3c(c2)OC[C@H]3CC(=O)O)c1 | 5.25
12 | Cc1ccc(N2CC(COc3ccc(-c4noc(C)n4)cc3)C2)nn1 | 26.4
13 | Cc1nn(-c2ccc(F)cc2)c(NS(=O)(=O)c2ccc(C(F)(F)F)cc2)c1C(=O)N[C@@H](C)C(C)(C)C | < 3
14 | C[C@H](c1nc2ncccc2c(=O)n1-c1ccc(Cl)cc1)N(CC1CCS(=O)(=O)CC1)C(=O)Cc1ccc(C(F)(F)F)c(F)c1 | 5.13
15 | O=C(Nc1cc(-c2ccnc(Nc3ccc(F)cc3)c2)ccn1)C1CCOCC1 | 14.8
16 | O=C(O)CCc1ccc(OCc2cc(Cl)ccc2-c2ccccc2)cc1 | 21.4
17 | N#CC1(NC(=O)[C@@H]2CCCC[C@H]2C(=O)N2CCN(c3nc4ccncc4s3)CC2)CC1 | 4.9
18 | CCCNC(=O)CSc1ccc(S(=O)(=O)N2CCCC2)cn1 | < 3
19 | COc1cc(-n2cnc3cc(-c4ccc(Cl)cc4)sc3c2=O)ccc1OC[C@H](O)C1CC1 | 22.9
20 | Cc1ccc(-c2cc(C(F)(F)F)nn2-c2ccc(CC(=O)O)cc2)cc1 | 4.79

Row | Compound | hepatocyte CLint [µL/min/1e6 cells]
21 | Cc1ccc(-c2cc(-c3ccccc3)nn2-c2ccc(S(N)(=O)=O)cc2)cc1 | 13.5
22 | C[C@H](CO)Nc1nc(SCc2ccco2)nc2[nH]c(=O)sc12 | 27.3
23 | C=CC(=O)Nc1ccc2ncnc(Nc3cccc(C)c3)c2c1 | 15.5
24 | CC1CCC2C(C)C(=O)OC3OC4(C)CCC1C32OO4 (stereo not drawn) | 18.2
25 | COc1ccc(C)c(Nc2ncc3ccn(-c4ccccn4)c3n2)c1 | 102
26 | CN(C)S(=O)(=O)NC(=O)CCCc1c(-c2ccc(F)cc2)[nH]c2ccc(C#N)cc12 | 44
27 | Cc1cnc(Nc2ccc(F)cc2Cl)nc1-c1c[nH]c(C(=O)N[C@H](CO)c2cccc(Cl)c2)c1 | 8.51
28 | CCCSc1ccc2nc(NC(=O)OC)[nH]c2c1 [ALBENDAZOLE] | 12.6
29 | CCN(Cc1cc(C(F)(F)F)ccc1-c1cc(CC(=O)O)ccc1OC)C(=O)NCc1ccccc1 [AM-211] | 25.1
30 | CCN(CC)Cc1cc(Nc2ccnc3cc(Cl)ccc23)ccc1O [AMODIAQUINE] | 32.4
31 | CC(NC(C)(C)C)C(=O)c1cccc(Cl)c1 (stereo not drawn) [BUPROPION] | 17
32 | COc1cc2nccc(Oc3ccc(NC(=O)C4(C(=O)Nc5ccc(F)cc5)CC4)cc3)c2cc1OC [CABOZANTINIB] | 6.76
33 | Cc1nc(-c2ccc(OCC(C)C)c(C#N)c2)sc1C(=O)O [FEBUXOSTAT] | 7
34 | C#CC[C@@H](C(=O)N[C@H](/C=C/C(=O)OCC)C[C@@H]1CCNC1=O)n1cccc(NC(=O)c2cc(C)on2)c1=O [IMOCITRELVIR] | 38
35 | CC(C)NC[C@@H](C(=O)N1CCN(c2ncnc3c2[C@H](C)C[C@H]3O)CC1)c1ccc(Cl)cc1 [IPATASERTIB] | < 3
36 | CCNC(=O)C[C@@H]1N=C(c2ccc(Cl)cc2)c2cc(OC)ccc2-n2c(C)nnc21 [MOLIBRESIB] | < 3
37 | COc1nc(C)nc(Cl)c1N=C1NCCN1 [MOXONIDINE] | < 3
38 | O=C(O)C[C@H](O)C[C@H](O)/C=C/c1c(C2CC2)nc2ccccc2c1-c1ccc(F)cc1 [PITAVASTATIN] | 14.5
39 | CCOc1cc(CC(=O)N[C@@H](CC(C)C)c2ccccc2N2CCCCC2)ccc1C(=O)O [REPAGLINIDE] | 29.5

Test: in vitro
Conditions: human, plasma

Row | Compound | fraction unbound at 5 h
40 | O=P1(N(CCCl)CCCl)NCCCO1 (stereo not drawn) [CYCLOPHOSPHAMIDE ANHYDROUS] | 0.799

Same assay, conditions: human, plasma, PPB

Row | Compound | fraction unbound at 5 h
41 | CC(C)(C)OC(=O)N1CCC(OCc2nc(-c3ccncc3)no2)CC1 | 0.0084
42 | O=[N+]([O-])c1c(Nc2ccc(-n3cncn3)cc2)ncnc1N1CCC(Sc2ccccn2)CC1 | 0.0017
43 | COc1cccc(Nc2nc(NCC3CCCO3)c3ccccc3n2)c1 (stereo not drawn) | 0.0119
44 | NC(=O)c1cnc(N[C@H]2CCCNC2)c2cc(-c3ccc(F)c(Cl)c3)sc12 | 0.0039
45 | O=c1c2cc(-c3ccc(Cl)cc3)oc2ccn1-c1ccc2c(cnn2CCN2CCCC2)c1 | 0.0066
46 | Nc1nc(-c2ccccn2)nc(N)c1Cc1ccc(Cl)cc1Cl | 0.0139
47 | Cc1ccc(-c2nnc(SCC(=O)N3CCN(c4ccccc4)CC3)o2)cc1 | 0.0018
48 | O=C(Nc1cccc(Cl)c1)Nc1nnc(-c2ccncc2)s1 | 0.002
49 | CC(=O)Nc1ccc(Nc2cc(C)nc3c(-c4ccccc4)cnn23)cc1 | 0.0042
50 | Cc1nc2ccc(NS(=O)(=O)c3ccc(C)c(C)c3)cc2s1 | 0.001
51 | Cc1ccc(S(=O)(=O)N(C)c2ccc3sc(C)nc3c2)cc1 | 0.0074
52 | Cc1ccc(C(NC(=O)c2ccccc2O)C(=O)Nc2c(C)cccc2C)s1 (stereo not drawn) | 0.0043
53 | CCS(=O)(=O)c1ccc(-c2cc(Cl)ccc2OCC(=O)O)c(C)c1 | 0.0029
54 | Cc1c(Sc2ccc(Cl)cc2)c2c(-c3ccccc3)cccc2n1CC(=O)O | 0.0032
55 | CC(=O)c1ncccc1NC(=O)[C@H]1CC[C@H](N2C(=O)[C@@H]3[C@@H]4CC[C@@H](C4)[C@@H]3C2=O)CC1 | 0.013
56 | Cc1nn(C)c(C)c1-c1ccc(-c2nc3ccncc3c(O)c2C#N)cc1 | 0.0036
57 | CC(=O)Nc1ccc2c(c1)c(-c1cc(NC3CC3)n3ncc(C#N)c3n1)cn2C | 0.0136
58 | Cc1cc(F)ccc1Oc1cccc2c(=O)cc(N3CCOCC3)[nH]c12 | 0.0119
59 | CC(C)C(NC(=O)c1cc(Cl)ccc1C(F)(F)F)C(=O)c1ccc([N+](=O)[O-])cc1 (stereo not drawn) | 0.0119
60 | O=S(=O)(Nc1ccc2sc(CO)nc2c1)c1ccc(Br)cc1 | 0.0069
61 | COc1ccc2nc(C)cc(OCC(=O)NCc3ccccc3)c2c1 | 0.0099
62 | Cc1ccc2c(c1)c(-c1ccnc3cc(C(F)(F)F)ccc13)c(C)n2CC(=O)O | 0.0036
63 | COc1cc(-n2cnc3cc(-c4ccc(Cl)cc4)sc3c2=O)ccc1OCCN1CCCC1 | 0.0139
64 | COc1cc(Nc2nc3c(c(COC4CCCC4)n2)COCC3)ccc1-n1cnc(C)c1 | 0.0099
65 | CCOC(=O)C1=C(C)NC2=C(C(=O)CC(C)(C)C2)C1c1ccc(-c2ccccc2)cc1 (stereo not drawn) | 0.0017
66 | N#Cc1cc(S(=O)(=O)Nc2ncns2)ccc1Oc1cc(Cl)c(F)cc1-c1ccnnc1 | 0.0041
67 | Cc1cn([C@H]2CCCN(S(=O)(=O)c3ccc(O)c(Oc4cccc(C(F)(F)F)c4)c3)C2)c(=O)[nH]c1=O | 0.0139

Row | Compound | fraction unbound at 5 h
68 | CC(C)C[C@H](CO)Nc1nc(SCc2ccccc2)nc2[nH]c(=O)sc12 | 0.002
69 | CC(C)C[C@H](CO)Nc1nc(SCc2ccccc2)nc2nc(N)sc12 | 0.0044
70 | CS(=O)(=O)c1ccc(-c2ccc3c(Nc4ccc(F)cc4)c(C(N)=O)cnc3c2)cc1 | 0.013
71 | C[C@H](CO)Nc1[nH]c(SCc2ccccc2F)nc2nc(=O)sc1-2 | 0.0014
72 | Cc1ccc2c(c1)c(-c1ccnc3c(Cl)cccc13)c(C)n2CC(=O)O | 0.0056
73 | O=c1[nH]c2cc(C(F)(F)F)ccc2n1-c1cc(C(F)(F)F)ccc1O | 0.0013
74 | CC[C@H](CO)Nc1nc(SCc2cccc(F)c2F)nc2nc(NC(C)C)sc12 | 0.004
75 | Cc1cc(C)cc(C(=O)Nc2ccc(Cl)c(C(=O)Nc3cncs3)c2)c1 | 0.004
76 | O=C(Nc1cccc(CCO)c1)c1cc2cc(Cl)ccc2[nH]1 | 0.0074
77 | Cn1c(=O)c(-c2c(Cl)cccc2Cl)cc2cnc(Nc3ccc(F)cc3)nc21 | 0.004
78 | CCc1c2c(nc3ccc(O)cc13)-c1cc3c(c(=O)n1C2)COC(=O)[C@]3(O)CC [7-ETHYL-10-HYDROXYCAMPTOTHECIN] | 0.0768
79 | Cc1c(CN(C)C(=O)/C=C/c2cnc3c(c2)CCC(=O)N3)oc2ccccc12 [AFN-1252] | 0.0544
80 | Cn1cnc([N+](=O)[O-])c1Sc1ncnc2nc[nH]c12 [AZATHIOPRINE] | 0.324
81 | CN(C)CC/C=C1\c2ccccc2COc2ccccc21 [E-DOXEPIN] | 0.212
82 | CC(C)(Oc1ccc(C(=O)c2ccc(Cl)cc2)cc1)C(=O)O [FENOFIBRIC ACID] | 0.0119
83 | CCC(CC)[C@@H](CO)NS(=O)(=O)c1ccc(Cl)s1 [GSI-136] | 0.0784
84 | O=C(CCCN1CCC(O)(c2ccc(Cl)cc2)CC1)c1ccc(F)cc1 [HALOPERIDOL] | 0.145
85 | CN1CCCN(C(c2ccccc2)c2ccc(Cl)cc2)CC1 (stereo not drawn) [HOMOCHLORCYCLIZINE] | 0.0606
86 | OCCOCCN1CCN(C(c2ccccc2)c2ccc(Cl)cc2)CC1 (stereo not drawn) [HYDROXYZINE] | 0.0818
87 | CC(C)Cn1cnc2c(N)nc3ccccc3c21 [IMIQUIMOD] | 0.148
88 | Cn1cc(-c2ccncc2)c(-c2ccc(OCc3ccc4ccccc4n3)cc2)n1 [MARDEPODECT] | 0.0012
89 | CN1CCCCC1CCN1c2ccccc2Sc2ccc([S+](C)[O-])cc21 (stereo not drawn) [MESORIDAZINE] | 0.0768
90 | CNC(=O)c1ccc(C)c(-n2c(C)cc(OCc3ccc(F)cc3F)c(Br)c2=O)c1 [PH-797804] | 0.0647
91 | CN1CCC(CNc2ccc3ncc(-c4cccc(OC(F)(F)F)c4)n3n2)CC1 [SGI-1776] | 0.0391
92 | Cn1c(C#N)ccc1-c1ccc2c(c1)C(C)(C)OC(=S)N2 [TANAPROGET] | 0.0179
93 | CCc1nn(C2CCCC2)c2c1CCn1c(-c3cccs3)nnc1-2 [TOFIMILAST] | 0.0374

— ChEMBL document CHEMBL3301361, “Experimental in vitro DMPK and physicochemical data on a set of publicly disclosed compounds”
